Results on 1 compound are retold here after ChEMBL document CHEMBL1152513, “Synthesis and characterizations of novel quinoline derivatives having mixed ligand activities at the kappa and mu receptors: Potential therapeutic efficacy against morphine dependence” (Bioorg Med Chem, 2009).

Amino acid sequences for entries named in this document (tags omitted).
UniProt P33535, whole entry: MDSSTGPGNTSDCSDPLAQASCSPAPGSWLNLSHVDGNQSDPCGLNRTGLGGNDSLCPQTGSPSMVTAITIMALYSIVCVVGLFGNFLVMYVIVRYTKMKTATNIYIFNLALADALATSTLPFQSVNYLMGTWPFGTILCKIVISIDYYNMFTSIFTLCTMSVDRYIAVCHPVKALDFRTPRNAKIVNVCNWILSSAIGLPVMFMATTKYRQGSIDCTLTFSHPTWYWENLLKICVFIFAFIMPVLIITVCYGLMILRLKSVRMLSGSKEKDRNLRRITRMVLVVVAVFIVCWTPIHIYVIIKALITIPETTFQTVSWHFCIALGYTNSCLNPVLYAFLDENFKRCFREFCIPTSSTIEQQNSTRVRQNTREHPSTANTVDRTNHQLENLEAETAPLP

The assay has as its target Mu-type opioid receptor (Rattus norvegicus, UniProt P33535). Briefly: Displacement of [3H]DAMGO from mu opioid receptor in rat brain. It counts as tissue-based.

`C[C@@H](NC(=O)[C@@H](N)Cc1ccc(O)cc1)C(=O)NCC(=O)N(C)[C@@H](Cc1ccccc1)C(=O)NCCO` [DAMGO] displayed an IC50 of 1.01 nM.

The term IC50 denotes the concentration at which inhibition is half-maximal. Lower therefore signals higher potency.
